The record followed here is paper PMC4757823, “μ Opioid receptor: novel antagonists and structural modeling” (Scientific Reports, 2016).

The chains behind the UniProt entries cited, without tags or fusion partners.
UniProt P35372, whole entry: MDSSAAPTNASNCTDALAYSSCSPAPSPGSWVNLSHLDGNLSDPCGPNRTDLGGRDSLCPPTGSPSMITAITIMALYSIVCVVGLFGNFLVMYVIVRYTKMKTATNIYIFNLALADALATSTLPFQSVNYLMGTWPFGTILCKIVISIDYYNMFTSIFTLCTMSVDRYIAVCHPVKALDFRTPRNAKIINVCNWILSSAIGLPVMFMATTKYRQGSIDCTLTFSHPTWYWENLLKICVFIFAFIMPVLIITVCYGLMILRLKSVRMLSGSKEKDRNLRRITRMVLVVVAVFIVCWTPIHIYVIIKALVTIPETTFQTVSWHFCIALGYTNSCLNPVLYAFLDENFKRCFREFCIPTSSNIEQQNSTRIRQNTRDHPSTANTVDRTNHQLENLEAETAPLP

Experiment [1] deals with T1, human MOR (Homo sapiens, UniProt P35372).
T1 construct: expressed in transfected cells; host or cells: CHO (Chinese hamster ovary) cells stably expressing human MOR; gift from Dr. Lawrence Toll, SRI International
Kind of experiment: [35S]GTPγS binding assay in CHO-hMOR cell membranes. It counts as biochemical. The following applies: agonist mode. As to the method: Determination of [^35S]GTPγS binding to CHO-hMOR cell membranes were performed as described previously. Cell membranes (5–10 μg protein), prepared as described for the radioligand MOR binding assay, were incubated in the absence or in the presence of test compound in the assay buffer (20 mM HEPES, 100 mM NaCl, 10 mM MgCl2, pH 7.4) containing [^35S]GTPγS (0.05 nM) and GDP (10 nM) in a total volume of 1.0 mL for 60 min at 25 °C. Nonspecific binding was determined using 10 μM GTPγS, and the basal binding was determined in the absence of test compound. Samples were filtered over glass fiber filters and counted as described for the radioligand binding assays. […]. The antagonist equilibrium dissociation constant Ke for 4 was calculated using the equation Ke = [a]/(DR − 1), where “a” is the concentration of antagonist. All experiments were performed in duplicate and repeated at least three times.
Background: GTPγS resists hydrolysis and so accumulates on activated G proteins.

Experiment [2] concerns the target T1, human MOR. Nature of the experiment: cAMP accumulation assay (GloSensor) in CHO-hMOR-p22F cells. The experiment is classed as cell-based. As to the method:
Inhibition of the forskolin-stimulated intracellular cAMP accumulation in CHO cells co-expressing the hMOR and the cAMP biosensor GloSensor-22F (CHO-hMOR-p22F cells) was performed using the Glo-Sensor^TM cAMP assay (Promega), according to the manufacturer’s instructions. Cells were seeded in growth medium into 384-well plates at a density of 5,000 cells in 30 μL per well and incubated overnight. On the day of assay, culture media was removed, and cells were pre-equilibrated for 90 min with 4% v/v of the GloSensor cAMP reagent in reaction medium (20 mM HEPES, 1 × HBSS, pH 7.4) at 37 °C and 5% CO2. […]. Forskolin (10 μM) was added to each well, and luminescence was measured after 20 min. All experiments were performed in triplicate and repeated at least three times.
A general note: Changes in cAMP serve as a functional read-out for many G protein-coupled receptors.

For the substance “[D-Ala^2, Me-Phe^4, Glyol^5]enkephalin [DAMGO, reference compound]”, on human MOR [1], the “stimulation of [35S]GTPγS binding” value is “high potency and stimulatory effect”. At human MOR [2], the “inhibition of the forskolin-stimulated cAMP production” value is “concentration-dependent inhibition”.
